Target: T1, Interstitial collagenase (Homo sapiens, UniProt P03956)
T1 sequence (P03956 whole entry): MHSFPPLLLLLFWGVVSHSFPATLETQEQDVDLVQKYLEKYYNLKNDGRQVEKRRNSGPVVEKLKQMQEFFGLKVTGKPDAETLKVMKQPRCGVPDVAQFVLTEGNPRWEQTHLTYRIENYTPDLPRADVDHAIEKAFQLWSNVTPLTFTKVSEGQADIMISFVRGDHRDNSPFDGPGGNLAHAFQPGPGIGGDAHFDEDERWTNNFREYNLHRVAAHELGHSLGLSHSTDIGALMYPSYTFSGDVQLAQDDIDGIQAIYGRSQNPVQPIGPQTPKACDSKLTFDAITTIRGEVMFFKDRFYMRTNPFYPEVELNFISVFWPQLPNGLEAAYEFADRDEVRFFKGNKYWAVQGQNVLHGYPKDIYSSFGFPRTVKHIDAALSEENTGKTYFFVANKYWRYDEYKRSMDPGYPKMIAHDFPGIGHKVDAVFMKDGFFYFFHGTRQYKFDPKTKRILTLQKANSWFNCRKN
Test: Inhibition of human matrix metalloprotease-1

IC50: 27 nM
SMILES: COc1ccc(S(=O)(=O)N(Cc2cccnc2)[C@@H](C(=O)NO)C(C)C)cc1 [CGS-27023A]
